Screens as filed in PubChem.
Rows were chosen to be rich in hits. Some 16% of all compounds tested hit in one or more screens of this group.
TDP1 block: TDP1 (human) enzyme inhibition; Q9NUW8; recombinant TDP1, AlphaScreen DNA substrate cleavage; Potency, µM (highest dose often 130 µM), inactives show top-dose activity change, negative = inhibition, hits mostly inhibitors; 350,000 tested, 0.28% active; also: potency is read from the fitted curve at half-maximal effect; % is scaled to controls: 0 for no effect and ±100 for the full control effect; nearly all actives have a fitted effect of over 40% in size
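Here, a 5' biotin and 3' phosphotyrosine-FITC DNA oligonucleotide reports Tdp1 activity: intact substrate bridges AlphaScreen beads, while cleavage leaves a 3' phosphate and drops signal. All incubations at room temperature.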
DT40 TDP1 no CPT: qHTS for Inhibitors of human tyrosyl-DNA phosphodiesterase 1 (TDP1): qHTS in cells in absence of CPT; DT40 Tdp1-/- hTDP1 cells, no CPT, ATP luminescence, 48 h; Potency, µM (doses to about 46.2 µM), for inactives: at the top dose activity change, negative = growth inhibition, most hits filed as inhibitors; 420,000 tested, 15% active; also: potency is read from the fitted curve at half-maximal effect; % is scaled to controls: 0 for no effect and ±100 for the full control effect; nearly all actives have a fitted effect of over 55% in size
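Compound effects on proliferation are scored in DT40 Tdp1-/-;hTDP1 cells in the absence of CPT. ATP levels (CellTiter-Glo luminescence) are recorded after a ≥48 hr, 37 °C incubation.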
miR-21 FLuc: miR-21 reporter, rising signal; Potency, µM (titrated, usually from 38.3 µM), without a hit: at the highest dose reporter change, positive = more light; AID 2288; 340,000 tested, under 10 active; HeLa miR-21 FLuc reporter, luciferase, 48 h; active = well fitted rising curve with a large enough effect; inconclusive = small, poorly fitted or top-dose-only effect; inactive = no such curve, though single readings can be large or run the other way;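 note: % of control where 0% means no effect; miR-21 action dims this reporter so a rising signal means less miR-21 action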
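Using DMEM plus 10% FBS, HeLa miR-21-FLuc cells are incubated with test compounds (final up to about 40uM) for 48 hours; firefly luciferase signal is then imaged following reagent-mediated lysis.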
uPA surface inh: inhibitors of cell surface uPA generation; cell surface uPA generation assay, qHTS; Potency, µM (titrated, usually from 38.3 µM), for inactives: at the highest dose activity change, negative = inhibition, hits mostly inhibitors; 330,000 tested, 0.31% active; AID 540303; active = well fitted inhibition curve with a large enough effect; inconclusive = small, poorly fitted or top-dose-only effect; inactive = no such curve, though single readings can be large or run the other way; tested in mouse RAW 264.7 cells; also: potency is read from the fitted curve at half-maximal effect; % is scaled to controls: 0 for no effect and ±100 for the full control effect; nearly all actives have a fitted effect of over 55% in size
TDP1 cell CPT: DT40-hTDP1 cell growth loss with CPT; Potency, µM (top dose mostly 46.2 µM), for the others: at the top dose activity change, negative = growth inhibition, most hits filed as inhibitors; chicken DT40 Tdp1-/-;hTDP1 cells + 20 nM CPT, ATP luminescence, 48 h; 420,000 tested, 12% active; AID 686979; also: potency is read from the fitted curve at half-maximal effect; % is scaled to controls: 0 for no effect and ±100 for the full control effect; nearly all actives have a fitted effect of over 55% in size
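Chicken DT40 Tdp1-/- cells complemented with human TDP1, 400 cells/well, exposed to compounds plus 20 nM camptothecin for at least 48 h at 37 C; viability read as ATP content by CellTiter-Glo luminescence.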
* hit, by the source's call; ? = inconclusive; . = no result; [ ] = dose if it differs, or a comment. Unless noted, calls follow the shape of the dose curve; as a rule, active = well fitted curve in the direction sought with a large enough effect; inconclusive = small, poorly fitted or top-dose-only effect, or another doubt; inactive = no such curve, though single readings can be large; an effect the other way counts as inactive or inconclusive.

SMILES | TDP1 block | DT40 TDP1 no CPT | miR-21 FLuc | uPA surface inh | TDP1 cell CPT
Cc1ccc(C)c(S(=O)(=O)NCc2ccc(C(=O)N3CCCCCC3)cc2)c1 | -5% | 23µM* | 10% | -1% | ?
COc1ccc(N2CCN(C(=O)c3ccc(CNS(=O)(=O)c4cc(C)ccc4C)cc3)CC2)cc1 | 9% | 15µM* | 11% | ? | 21µM*
Cc1ccc(C)c(S(=O)(=O)NCc2ccc(C(=O)N3CCN(c4ccccc4)CC3)cc2)c1 | 4% | ? | 13% | -6% | ?
COc1ccc(N2CCN(C(=O)c3ccc(CNS(=O)(=O)c4ccc(C)cc4)cc3)CC2)cc1 | 8% | 12µM* | 5% | -6% | ?
CCn1nc(C)c(CNC(=O)c2cc(COc3cncc(Cl)c3)on2)c1C | . | ? | 16% | -13% | ?
COc1ccccc1/C=C/C(=O)OCC(=O)c1c(N)n(C)c(=O)n(C)c1=O | 3% | -15% | -2% | 1% | 5%
CCOC(=O)c1oc2ccccc2c1COC(=O)C(C)NC(=O)c1ccco1 (stereo not drawn) | 1% | ? | . | 0% | ?
O=C(c1ccc(CNS(=O)(=O)c2ccc(F)cc2)cc1)N1CCCCCC1 | . | 15µM* | . | . | ?
Cc1ccc(S(=O)(=O)NCc2ccc(C(=O)N3CCN(c4ccccn4)CC3)cc2)cc1 | 2% | ? | 16% | 0% | ?
Cc1ccc(S(=O)(=O)NCc2ccc(C(=O)N3CCN(c4ccc([N+](=O)[O-])cc4)CC3)cc2)cc1 | 3% | 9.2µM* | 25% | ? | 16µM*
CCCc1ccc(OC(=O)c2ccc(O)cc2Cl)cc1 | 0% | ? | -17% | -3% | ?
S=C(NCc1ccncc1)Nc1ccc(Cl)cc1 | 3% | ? | 12% | 1% | -24%
O=C(CSc1c2c(nc3cc(Cl)ccc13)CCCC2)NCc1ccco1 | 2% | 16µM* | 14% | -8% | 23µM*
O=C(CSc1c2c(nc3cc(Cl)ccc13)CCCC2)NCc1ccccc1Cl | 4% | 15µM* | ? | . | 18µM*
CCC(C)NC(=O)CSc1c2c(nc3cc(Cl)ccc13)CCCC2 (stereo not drawn) | 1% | ? | -6% | . | ?
COCCNC(=O)CSc1c2c(nc3ccc(Cl)cc13)CCCC2 | 0% | ? | 10% | ? | 16µM*
O=C(CSc1c2c(nc3cc(Cl)ccc13)CCCC2)N1CCN(c2ccccc2)CC1 | 6% | 5.8µM* | ? | . | 7.3µM*
O=[N+]([O-])c1ccc(Cl)cc1P(=O)(O)c1cc(Cl)ccc1[N+](=O)[O-] | . | 7% | . | -1% | 4%
N#CCCN(C(=O)COC(=O)c1ccc2c(c1)OCO2)c1ccccc1 | -3%[56.1 µM] | -27% | . | 7% | 7%
CCCCNC(=O)CSc1c2c(nc3ccc(Cl)cc13)CCCC2 | -2% | ? | 20% | . | ?
O=C(CSc1c2c(nc3ccc(Cl)cc13)CCCC2)NCc1ccccc1Cl | 0% | 23µM* | 1% | . | 15µM*
Cc1cc(C)c2cc(C#N)c(SCC(=O)NCc3ccco3)nc2c1 | -4% | 18µM* | -17% | -10% | 18µM*
CCOC(=O)CSc1nc2cc(C)cc(C)c2cc1C#N | -10% | ? | -31% | 1% | -23%
CCCCN(CC)C(=O)CSc1c2c(nc3ccc(Cl)cc13)CCCC2 | -2% | 16µM* | 22% | . | 7.3µM*
O=C(Cc1ccc(-c2ccccc2)cc1)Nc1ccccc1 | 11% | 2% | -19% | -4% | 15%

For convenience, part of the list above.
SMILES | TDP1 block | DT40 TDP1 no CPT | miR-21 FLuc | uPA surface inh | TDP1 cell CPT
Cc1ccc(C)c(S(=O)(=O)NCc2ccc(C(=O)N3CCCCCC3)cc2)c1 | -5% | 23µM* | 10% | -1% | ?
COc1ccc(N2CCN(C(=O)c3ccc(CNS(=O)(=O)c4cc(C)ccc4C)cc3)CC2)cc1 | 9% | 15µM* | 11% | ? | 21µM*

(more compounds)
SMILES | TDP1 block | DT40 TDP1 no CPT | miR-21 FLuc | uPA surface inh | TDP1 cell CPT
O=C(CC1C(=O)NCCN1CCCc1ccccc1)NCCc1ccccc1F (stereo not drawn) | 6% | ? | -4% | 4% | -23%
Cc1ccc(-c2csc3ncn(C(C)C(=O)O)c(=O)c23)cc1 (stereo not drawn) | -3% | 3% | 0% | -7% | -11%
O=C(C1CCCCC1)N1CCC2CC1c1cc(-c3ccc4c(c3)OCO4)ccc12 (stereo not drawn) | . | 18µM* | . | . | 18µM*
CC(C)(C)C(=O)N1CCC2CC1c1cc(-c3ccc4c(c3)OCO4)ccc12 (stereo not drawn) | . | 23µM* | . | . | ?
CC(C)(C)C(=O)N1CCC2CC1c1cc(Cl)ccc12 (stereo not drawn) | . | -29% | . | -5% | 0%
O=C(Nc1ccc2c(c1)OCO2)C1CCCCC1 | 7% | 6% | -48% | -34% | -28%
CS(=O)(=O)c1ccc(-c2cnc3c(NC=O)cc(-c4ccsc4)cn23)cc1 | . | 18µM* | . | . | 23µM*
O=CNc1cc(-c2ccsc2)cn2c(-c3ccccc3)cnc12 | . | 21µM* | . | . | 16µM*
O=C(CC1N=C2c3ccccc3N=C(SCc3cccc(F)c3)N2C1=O)NCc1cccs1 (stereo not drawn) | 3% | ? | 3% | . | ?
CC(=O)c1cccc(NS(=O)(=O)c2ccc3[nH]c4c(c3c2)CCCCC4)c1 | 11% | 16µM* | ? | . | 21µM*
O=C(Nc1ccc2[nH]c3c(c2c1)CCCC3)c1ccco1 | 14% | 21µM* | -5% | -6% | ?
CC(=O)c1cccc(NS(=O)(=O)c2ccc3[nH]c4c(c3c2)CCCCCC4)c1 | 4% | 21µM* | 9% | . | ?
Cc1ccc(NS(=O)(=O)c2ccc3[nH]c4c(c3c2)CCCC4)cc1N(C)C | 11% | ? | 16% | . | ?
CCOC(=O)c1cccc(NS(=O)(=O)c2ccc3[nH]c4c(c3c2)CCCC4)c1 | 6% | ? | 20% | . | 23µM*
COc1ccc2cc3cc(C(=O)Nc4cc(C)c(Cl)cc4OC)oc3nc2c1 | -7% | ? | -1% | . | -1%
CC(=O)c1ccc(NC(=O)COC(=O)C2CC3C=CC2C3)cc1 (stereo not drawn) | 2% | ? | . | -11% | -20%
Cn1c(SCC(=O)N2CCOCC2)ncc(C(=O)Nc2ccccc2)c1=O | 5% | -25% | -19% | . | ?
Cc1ccc(NC(=O)c2cnc(SCC(=O)c3ccccc3)n(C)c2=O)cc1 | 0% | 16µM* | . | 1% | -36%
Cn1c(SCC(=O)c2ccccc2)ncc(C(=O)Nc2ccccc2)c1=O | -3% | 21µM* | . | -1% | ?
Cc1cc(NC(=O)CSc2ncc(C(=O)Nc3ccccc3)c(=O)n2C)no1 | 8% | 1% | 0% | . | -3%
COc1ccc(CN(C)CC(=O)NC(=O)NCc2ccccc2)c(OC)c1 | -2% | ? | -12% | 2% | ?
CN(CC(=O)NC(=O)NCc1ccccc1)Cc1ccc(Cl)c(Cl)c1 | 4% | 29µM* | -2% | 6% | 21µM*
O=C(NCCN1CCOCC1)C1(C(F)(F)F)CC(CCCO)CCCO1 (stereo not drawn) | 1% | . | . | . | .

Results in miR-21 FLuc, uPA surface inh and DT40 TDP1 no CPT, for some of the entries so far:
smiles	miR-21 FLuc	uPA surface inh	DT40 TDP1 no CPT
CN(CC(=O)NC(=O)NCc1ccccc1)Cc1ccc(Cl)c(Cl)c1	-2%	6%	29µM*
O=C(Nc1ccc2c(c1)OCO2)C1CCCCC1	-48%	-34%	6%
Cc1ccc(NC(=O)c2cnc(SCC(=O)c3ccccc3)n(C)c2=O)cc1	.	1%	16µM*

Some values from above.
uPA surface inh, Cc1ccc(S(=O)(=O)NCc2ccc(C(=O)N3CCN(c4ccccn4)CC3)cc2)cc1 is entered as 0%
TDP1 block, CC(=O)c1cccc(NS(=O)(=O)c2ccc3[nH]c4c(c3c2)CCCCCC4)c1 is entered as 4%
